The data set can be described thus: label from the status in PepcDB records.

Consider “MEGERKNNNKRWYFTREQLENSPSRRFGVDPDKELSYRQQAANLLQDMGQRLNVSQLTINTAIVYMHRFYMIQSFTQFPGNSVAPAALFLAAKVEEQPKKLEHVIKVAHTCLHPQESLPDTRSEAYLQQVQDLVILESIILQTLGFELTIDHPHTHVVKCTQLVRASKDLAQTSYFMATNSLHLTTFSLQYTPPVVACVCIHLACKWSNWEIPVSTDGKHWWEYVDATVTLELLDELTHEFLQILEKTPNRLKRIWNWRACEAAKKTKADDRGTDEKTSEQTILNMISQSSSDTTIAGLMSMSTSTT”, for which the protein production result is reported as “failed”. As for “MGRARDAILDALENLTAEELKKFKLKLLSVPLREGYGRIPRGALLSMDALDLTDKLVSFYLETYGAELTANVLRDMGLQEMAGQLQAATHQGSGAAPAGIQAPPQSAAKPGLHFIDQHRAALIARVTNVEWLLDALYGKVLTDEQYQAVRAEPTNPSKMRKLFSFTPAWNWTCKDLLLQALRESQSYLVEDLERS”, the protein production entry is listed as “failed”.
